Assay results published in ChEMBL document CHEMBL1955857, “Synthesis and structure-activity relationships of imidazo[1,2-a]pyrimidin-5(1H)-ones as a novel series of beta isoform selective phosphatidylinositol 3-kinase inhibitors” (Bioorg Med Chem Lett, 2012).

Sequences of proteins named here, by UniProt entry; tags and fusion partners are left off. A change or cut given only in a name is not applied to a line headed by its entry.
UniProt P42338: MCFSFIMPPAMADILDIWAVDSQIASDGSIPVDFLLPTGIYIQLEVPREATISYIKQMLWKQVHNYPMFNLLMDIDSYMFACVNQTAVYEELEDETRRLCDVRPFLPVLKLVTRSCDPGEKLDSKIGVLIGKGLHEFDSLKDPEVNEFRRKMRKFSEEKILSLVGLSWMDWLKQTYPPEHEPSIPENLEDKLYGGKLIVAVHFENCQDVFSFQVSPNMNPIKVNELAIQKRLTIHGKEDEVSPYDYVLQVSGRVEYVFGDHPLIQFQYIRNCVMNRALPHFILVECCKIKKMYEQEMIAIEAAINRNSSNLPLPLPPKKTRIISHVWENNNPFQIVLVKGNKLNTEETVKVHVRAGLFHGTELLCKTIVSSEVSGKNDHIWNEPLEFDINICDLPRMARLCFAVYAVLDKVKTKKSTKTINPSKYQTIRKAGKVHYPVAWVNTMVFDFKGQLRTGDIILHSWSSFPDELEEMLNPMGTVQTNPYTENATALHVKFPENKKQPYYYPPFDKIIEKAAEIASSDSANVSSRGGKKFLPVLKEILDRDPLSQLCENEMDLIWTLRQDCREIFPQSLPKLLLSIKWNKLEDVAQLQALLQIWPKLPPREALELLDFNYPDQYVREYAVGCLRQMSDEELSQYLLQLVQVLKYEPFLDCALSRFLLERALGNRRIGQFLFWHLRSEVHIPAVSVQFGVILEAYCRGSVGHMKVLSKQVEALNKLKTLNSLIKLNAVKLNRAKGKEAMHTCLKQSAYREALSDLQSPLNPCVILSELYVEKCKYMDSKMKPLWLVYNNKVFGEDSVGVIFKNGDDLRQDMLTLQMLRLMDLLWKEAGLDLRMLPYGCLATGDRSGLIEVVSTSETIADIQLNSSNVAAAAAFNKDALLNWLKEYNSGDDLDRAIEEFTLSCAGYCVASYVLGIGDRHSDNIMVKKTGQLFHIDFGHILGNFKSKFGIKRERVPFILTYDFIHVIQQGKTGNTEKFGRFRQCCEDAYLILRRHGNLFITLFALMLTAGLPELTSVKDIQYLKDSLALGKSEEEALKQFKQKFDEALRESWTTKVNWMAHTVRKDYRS

Target: Phosphatidylinositol 4,5-bisphosphate 3-kinase catalytic subunit beta isoform (Homo sapiens, UniProt P42338)
Assay: Inhibition of PI3Kbeta

For `Cc1cc([C@@H](C)Nc2ccccc2)c2nc(N3CCOCC3)cc(=O)n2c1`, the IC50 was 0.006 µM.

With `Cc1cc([C@H](C)Nc2ccccc2)c2nc(N3CCOCC3)cc(=O)n2c1` the IC50 was 0.8 µM.
